Experimental data taken from US20100249055A1, “CLOFARABINE PHOSPHOLIPID DERIVATIVES” (HEIDELBERG PHARMA AG, priority 2007, published 2010).

Test: Oral bioavailability and pharmacokinetics in mice (plasma, mass spectroscopy)
Details: WFI, experiment P06.0069

With “[2-Chloro-9-(2′-deoxy-2′-fluoro-β-D-arabinofuranosyl)adenine]-5′-phosphoric acid-(2-decyloxy-3-dodecyloxy)propyl ester [Compound 1]” the Vd (30 mg/kg iv) was 0.62 L/kg, the t½α (30 mg/kg iv) was 0.2 h and the t½β (30 mg/kg iv) was 4.6 h. It also gave a Vd (30 mg/kg po) of 2.00 L/kg, a t½α (30 mg/kg po) of 0.5 h and a t½β (30 mg/kg po) of 4.2 h.
